Values of other authors as cited in patent US7297551B2, “Recombinant proteins and peptides for endotoxin biosensors, endotoxin removal, and anti-microbial and anti-endotoxin therapeutics” (priority 1998, dated 2007).

Legend:
THP-1 monocytes = conditions: reference 29; cited from earlier work
cell lysis = conditions: reference 29; cited from earlier work

Row | Substance | concentration at which 50% cell lysis occurred (THP-1 monocytes) [µg/mL] | concentration at which 50% cell lysis occurred (cell lysis) [µg/mL]
1 | Polymixin B | 510 | –
2 | polymixin B | – | 510
